Data taken from patent US11883383B2, “Pharmaceutically acceptable salts of [3-(4- {2-butyl-1-[4-(4-chloro-phenoxy)-phenyl]-1H-imidazol-4-yl} -phenoxy)-propyl]-diethyl-amine” (vTv Therapeutics LLC, priority 2018, dated 2024).

Assay: Salt/co-crystal screening: 38 acids, eight solvent systems, solids analysed by XRPD
Assay type: physicochemical
Conditions: acid/freebase charge 1:1 unless label says 2:1, stirred at RT, else 5° C. slurry, anti-solvent addition or evaporation (footnote marks)
Procedure: XRPD analysis was performed with a Panalytical X'Pert^3 Powder XRPD on a Si zero-background holder. The 2θ position was calibrated against Panalytical Si reference standard disc.
A total of 320 salt/co-crystal screening experiments were conducted using 38 acids (two molar ratios for HCl and HBr) and eight solvent systems. Specifically, freebase stock solutions of ˜100 mg/mL were first prepared in each solvent system. For each experiment, 0.2 mL stock solution and the corresponding acids were mixed in a molar charge ratio of 1:1 (acid/freebase, 2:1 for HCl/freebase and HBr/freebase as well), and then stirred at RT. After stirring for 3-5 days, if precipitation was observed, the precipitate was isolated. It no precipitation, the clear solutions were first transferred to slurry at 5° C. to introduce precipitation. Solutions without any precipitation were further subjected to anti-solvent addition (for solvents in column B/D, 0.5 mL hexane was added; for solvents in column G/H, 0.5 mL water was added; for solvent in column F, 0.5 mL n-heptane was added). If still no precipitation, the final clear solutions were transferred to evaporation at RT to induce precipitation. All solids isolated were vacuum dried at RT for 2 hrs before XRPD analysis.

H3PO4
gel*: Solid obtained in salt screening (XRPD), solvent H Dioxane/H2O (9:1, v/v) (Dioxane/H2O (9:1, v/v)) | Solid obtained in salt screening (XRPD), solvent A Ethanol (Ethanol) | Solid obtained in salt screening (XRPD), solvent G Methanol/H2O (19:1, v/v) (Methanol/H2O (19:1, v/v)) | Solid obtained in salt screening (XRPD), solvent C THF (THF)
